The list is not random: actives were taken first. Their share in the collection is about 1.5%.
eIF4H inh = inhibitors of RNA binding by human eIF4H; Q15056; eIF4H fluorescence polarization binding assay; inhibition, % at 35 µM; 290,000 tested, 0.94% active; AID 2012;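 also: calls also rest on retests at 20 µM and on dose response follow-up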
PABP polyA inh = blocks human PABP binding to poly(A) RNA; 290,000 tested, 1% active; calls only at 35 µM; AID 2014; P11940; fluorescence polarization;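 also: calls also rest on retests at 20 µM and on dose response follow-up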
MLLE-PAM2 inh = inhibitors of microRNA-mediated deadenylation, human PABP1 MLLE binding; P11940; GST-MLLE / FITC-PAM2 fluorescence polarization; inhibition, % at 20 µM; 360,000 tested, 0.36% active; AID 588489; in the data active = inhibition above about 35%, passing the limit was not always enough;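 also: plate controls were DMSO wells with GST-MLLE for no effect and wells lacking GST-MLLE protein for full effect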
Yeast UUG start = alters start codon recognition fidelity in yeast. S. cerevisiae UUG-firefly luciferase reporter, luminescence/redox ratio. 350,000 tested, 0.13% active. activity score, % at 18.7 µM. AID 602363;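 active means replicate mean at a twofold rise or more, about +100% in these data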;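 further: firefly luciferase made from a UUG start codon reports start codon fidelity; reporter light over untreated wells divided by growth signal over untreated wells; some hits fall short of that in this replicate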
Pemphigus Ab inh = inhibitors of pemphigus antibody binding to human desmoglein-3; P32926; DSG3-coupled beads, scFv-anti-DSG3-GFP binding, flow cytometry; hits give low values; binding (percent of control), % at 10 µM; 310,000 tested, 0.48% active; AID 588358;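 active = binding more than 3 SD below its plate's average and above zero; inconclusive = below that plate limit but binding exactly zero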;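 also: hits lower antibody fragment binding to DSG3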
Numbers without * were called inactive; i = inactive; ? = inconclusive; . = no result given; + = active, no number. Unless noted, no rule for the calls is given here.

Screens by letter – A = eIF4H inh; B = PABP polyA inh; C = MLLE-PAM2 inh; D = Yeast UUG start; E = Pemphigus Ab inh
Cc1ccc2nc(N3CCC(C(=O)N4CCC5(CC4)OCCO5)CC3)sc2c1
  A = 0.8 | B = i | C = -2.8 | D = -9.7 | E = 97.2

CCc1ccc2nc(N3CCC(C(=O)N4CCC5(CC4)OCCO5)CC3)sc2c1
  A = 2.3* | B = + | C = -7.7 | D = 0.7 | E = 92.6

O=C(Cc1ccccn1)N1CCCCN2[C@H](CO)[C@H](c3ccc(-c4ccccc4F)cc3)[C@@H]2C1
  A = . | B = . | C = . | D = -5.2 | E = .

O=C(Cn1ncc2c3ccccc3n(Cc3cccc(Cl)c3)c2c1=O)N1CCC2(CC1)OCCO2
  A = 73.0* | B = + | C = -22.1 | D = 9.6 | E = 102.0

Cc1cccc(OCCn2cccc2/C=C2/C(=O)NC(=O)N(Cc3ccco3)C2=O)c1
  A = 52.7* | B = + | C = -27.3 | D = -7.3 | E = 106.4

O=C1NC(=O)N(Cc2ccco2)C(=O)/C1=C/c1ccc(-c2cccc([N+](=O)[O-])c2)o1
  A = 78.2* | B = + | C = -0.2 | D = 1.7 | E = 72.7

C=CCN1C(=O)NC(=O)/C(=C\c2ccc(-c3ccccc3[N+](=O)[O-])o2)C1=O
  A = 2.5 | B = i | C = 24.5 | D = . | E = 82.2

CC(C)CC#Cc1ccc([C@H]2[C@H](CO)N3CCCCN(C(=O)Cc4ccccn4)C[C@@H]23)cc1
  A = . | B = . | C = . | D = 14.4 | E = .

Cc1cc(/C=C2\C(=O)NC(=O)N(c3ccc(Cl)cc3)C2=O)c(C)n1-c1cccc(C(=O)O)c1
  A = ? | B = + | C = -11.4 | D = -17.6 | E = 100.7

Cc1cc(/C=C2\C(=O)NC(=O)N(c3ccc(Br)cc3)C2=O)c(C)n1-c1cc(C(=O)O)cc(C(=O)O)c1
  A = 46.5 | B = i | C = -7.9 | D = 12.0 | E = 91.0

COC(=O)[C@H]1[C@H](CO)[C@H]2Cn3c(cccc3=O)[C@@H]1N2C(=O)C1CCCC1
  A = . | B = . | C = . | D = 15.7 | E = .

COc1cc2c(cc1O)C[C@H]1NCCc3cc4c(c-2c31)OCO4
  A = 64.4* | B = + | C = -6.1 | D = 7.6 | E = 98.8

CCN(CC)P(=O)(NC(=O)c1cccn1C)N(CC)CC
  A = 4.4* | B = ? | C = -12.8 | D = . | E = 111.7

O=C1C(Cl)=CC(=Nc2ccc(O)cc2)C=C1Cl
  A = . | B = . | C = 45.6* | D = -3.8 | E = ?

O=[As](O)(O)c1ccc(N=Nc2ccc(O)cc2)cc1
  A = -0.7 | B = i | C = 8.6 | D = -14.9 | E = 92.5

Part of the list above, field by field:
> O=C(Cc1ccccn1)N1CCCCN2[C@H](CO)[C@H](c3ccc(-c4ccccc4F)cc3)[C@@H]2C1
  eIF4H inh: .
  PABP polyA inh: .
  MLLE-PAM2 inh: .
  Yeast UUG start: -5.2
  Pemphigus Ab inh: .
> O=C(Cn1ncc2c3ccccc3n(Cc3cccc(Cl)c3)c2c1=O)N1CCC2(CC1)OCCO2
  eIF4H inh: 73.0*
  PABP polyA inh: +
  MLLE-PAM2 inh: -22.1
  Yeast UUG start: 9.6
  Pemphigus Ab inh: 102.0

Next part.
Screens by letter – A = eIF4H inh; B = PABP polyA inh; C = MLLE-PAM2 inh; D = Yeast UUG start; E = Pemphigus Ab inh
COc1ccc(C#Cc2ccc([C@@H]3[C@H]4CN(C(=O)Cc5ccncc5)CCCCN4[C@H]3CO)cc2)cc1
  A = . | B = . | C = . | D = 2.0 | E = .

NC(=O)OCCSc1nnc(-c2cccc(C(N)=S)c2)o1
  A = 1.5 | B = i | C = 41.3* | D = -23.8 | E = 105.3

Nc1ccc2c3c(cccc13)CC2
  A = 70.0* | B = + | C = 92.8 | D = -2.5 | E = 116.4

O=C(Cc1ccccn1)N1CCCCN2[C@H](CO)[C@H](c3ccc(C#Cc4ccccc4)cc3)[C@@H]2C1
  A = . | B = . | C = . | D = 11.3 | E = .

O=c1[nH]c(=O)n(-c2ccccc2)c(O)c1N=Nc1ccc(Br)cc1
  A = 2.1* | B = i | C = -1.3 | D = -2.8 | E = 103.8

CCOc1ccc(-n2c(O)c(N=Nc3c(C)n(C)n(-c4ccccc4)c3=O)c(=O)[nH]c2=O)cc1
  A = -6.4 | B = i | C = -30.6 | D = -24.5 | E = 98.1

N#Cc1cccc(-c2ccc([C@@H]3[C@@H](CO)N4CCCCN(C(=O)Cc5ccncc5)C[C@H]34)cc2)c1
  A = . | B = . | C = . | D = -20.2 | E = .

Nc1ncnc2c1ccn2[C@@H]1O[C@H](CO)[C@@H](O)[C@H]1O
  A = . | B = . | C = -0.7 | D = -15.7 | E = 78.6

NC(=S)c1cn(C2OC(CO)C(O)C2O)c2ncnc(N)c12 (stereo not drawn)
  A = -3.1 | B = i | C = 43.2* | D = -27.0 | E = 100.5

O=C(Cc1cccnc1)N1CCCCN2[C@H](CO)[C@@H](c3ccc(C#CC4CC4)cc3)[C@@H]2C1
  A = . | B = . | C = . | D = -1.7 | E = .

O=C1NC(=S)NC(=O)C1=Cc1ccc2c(c1)CCN2CCCCl
  A = 68.4* | B = + | C = -23.1 | D = -15.0 | E = 58.5*

CC(=O)Nc1ccc(OC(=O)N(C)c2ccccc2)cc1
  A = active | B = i | C = 12.3 | D = -2.4 | E = 99.5

O=C(Cc1cccnc1)N1CCCCN2[C@@H](CO)[C@H](c3ccc(C#CC4CC4)cc3)[C@@H]2C1
  A = . | B = . | C = . | D = 1.9 | E = .

CCOCCCN=Cc1c(O)n(Cc2ccccc2)c(=O)[nH]c1=O
  A = -2.1 | B = i | C = 2.1 | D = -9.0 | E = 93.5

O=c1[nH]c(=O)n(Cc2ccccc2)c(O)c1C=NCCCO
  A = 53.9* | B = + | C = -95.6 | D = -16.9 | E = 98.4

O=C(Cc1ccncc1)N1CCCCN2[C@H](CO)[C@@H](c3ccc(C#CC4(O)CCCC4)cc3)[C@@H]2C1
  A = . | B = . | C = . | D = 15.9 | E = .

CCOc1ccc(-n2c(O)c(C=NCCN3CCNCC3)c(=O)[nH]c2=O)cc1
  A = active | B = + | C = 0.6 | D = 18.8 | E = 99.2

Cc1ccc(-n2c(O)c(C=NCCN3CCNCC3)c(=O)[nH]c2=S)cc1
  A = 0.9 | B = i | C = 27.1 | D = -27.0 | E = ?

OC[C@H]1[C@@H]2c3ccccc3NC[C@@H]2N1Cc1cccnc1
  A = . | B = . | C = . | D = -14.6 | E = .

O=C(Cc1cccnc1)N1CCCCN2[C@H](C1)[C@@H](c1ccc(/C=C/c3ccccc3)cc1)[C@@H]2CO
  A = . | B = . | C = . | D = -6.3 | E = .

C=CCn1c(O)c(/C=C2/C=CC=N2)c(=O)[nH]c1=O
  A = 88.5* | B = + | C = -8.0 | D = -1.6 | E = 95.5

CCCCn1c(O)c(/C=C2/C=CC=N2)c(=O)[nH]c1=O
  A = -6.0 | B = i | C = -6.8 | D = -5.3 | E = 98.9

COc1cc2[nH]c(=O)n(-c3cccc(Cl)c3)c(=O)c2cc1OC
  A = -2.6 | B = i | C = 7.5 | D = -15.0 | E = 85.1

CC(=O)c1c(O)n(-c2cccc(Cl)c2)c(=O)[nH]c1=O (tested in a mixture with another compound)
  A = 112.2* | B = + | C = -56.9 | D = . | E = 108.1

CN(C)c1ccc(/C=C2\C(=O)NC(=O)N(CCc3ccc(F)cc3)C2=O)cc1
  A = 110.7* | B = + | C = -116.1 | D = -17.7 | E = .

COCCN1C(=O)NC(=O)/C(=C\c2ccc(F)cc2)C1=O
  A = 20.5 | B = i | C = 12.4 | D = -17.8 | E = 105.7

Cc1ccc(/C=C2/C(=O)NC(=O)N(CCc3ccc(F)cc3)C2=O)o1
  A = ? | B = + | C = -30.3 | D = . | E = 95.6

COc1ccc(-c2ccc([C@@H]3[C@@H](CO)N4CCCCN(C(=O)Cc5ccccc5)C[C@H]34)cc2)cc1
  A = . | B = . | C = . | D = -4.5 | E = .

FC(F)(F)c1ccc(CNCCc2ccc3c(c2)OCO3)cc1
  A = 8.2 | B = i | C = -1.2 | D = 9.4 | E = 82.6*

Clc1ccc(CNCCc2ccc3c(c2)OCO3)cc1
  A = -2.2 | B = i | C = -6.8 | D = -1.1 | E = 98.0

COC(=O)[C@H]1[C@H](CO)[C@H]2Cn3c(cccc3=O)[C@@H]1N2C(=O)C1CCC1
  A = . | B = . | C = . | D = -2.0 | E = .

Cn1ccnc1P(=S)(c1nccn1C)N1CCOCC1
  A = -11.4 | B = i | C = 37.2* | D = -22.3 | E = 98.5

COC(=O)C[C@H]1CC[C@@H]2NC[C@@H](O)COC[C@H]2O1
  A = . | B = . | C = . | D = -13.2 | E = .

Grouped by structure, the entries above with a COOH group
Screens by letter – A = eIF4H inh; B = PABP polyA inh; C = MLLE-PAM2 inh; D = Yeast UUG start; E = Pemphigus Ab inh
Cc1cc(/C=C2\C(=O)NC(=O)N(c3ccc(Cl)cc3)C2=O)c(C)n1-c1cccc(C(=O)O)c1
  A = ? | B = + | C = -11.4 | D = -17.6 | E = 100.7

Cc1cc(/C=C2\C(=O)NC(=O)N(c3ccc(Br)cc3)C2=O)c(C)n1-c1cc(C(=O)O)cc(C(=O)O)c1
  A = 46.5 | B = i | C = -7.9 | D = 12.0 | E = 91.0
